## Antibody variant affinities, Ab-14 heavy chain, assay B

Values reported by Li et al. 2023, doi:10.1038/s41467-023-39022-2 (FLAb copy).

Antigen: PDVDLGDISGINAS, a 14-residue peptide of the SARS-CoV-2 spike HR2 region.

Parent: Ab-14, a human scFv built as VH, a 15-residue (Gly4Ser)3 linker, VL. Only the CDRs of the heavy chain vary.
VH: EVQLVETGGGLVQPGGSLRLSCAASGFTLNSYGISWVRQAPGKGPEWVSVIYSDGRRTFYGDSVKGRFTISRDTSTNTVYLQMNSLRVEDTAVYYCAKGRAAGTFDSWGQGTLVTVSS
VL: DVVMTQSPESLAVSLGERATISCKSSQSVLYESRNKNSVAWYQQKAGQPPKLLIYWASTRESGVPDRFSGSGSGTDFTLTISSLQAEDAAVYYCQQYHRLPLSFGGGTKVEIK

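The parent was found by panning a naive human phage display library on the peptide. Designed CDR sequences, proposed from the first random library and measured here. Group labels follow the data file (Ctrl: baseline library sampled from a position-specific scoring matrix, with some repeated check sequences; Rand: our label for a block that the file lists under HC and that is probably the random mutants of the ten best first-round binders; En: ensemble of fine-tuned language models; GP: Gaussian process model; GPLM: also part of the Gaussian process libraries; HC: hill climbing; Gen: genetic algorithm; Gibbs: Gibbs sampling; a sequence that several methods proposed may carry one label only). The scFvs were displayed on barcoded MATa yeast, the peptide on MATalpha yeast. Mating (16 h, 30 °C) was followed by selection of diploids and sequencing of their barcodes. Read counts were normalised to the haploid input and turned into Kd by a linear fit to BCL2-family pairs of known affinity, for each replicate. The assay was run in six technical replicates.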

The parent's heavy chain CDRs are GFTLNSYGIS, VIYSDGRRTFYGDSVK, GRAAGTFDS; each variant's own CDRs replace them letter for letter.
Values are log10 of the apparent Kd in nM; lower means stronger binding.
Averages over replicates are reported, and they cover detected replicates only.
Where no diploid with the target was found in any replicate, the entry reads "no signal": below detection, most likely a poor binder, though not proof of it.

{"CDR-H1": "GFDLNEYGIS", "CDR-H2": "VIYADGRRTFYSDSVK", "CDR-H3": "GENGGTFDI", "group": "En_HC", "mean, log10 nM": "0.57", "seen in": "6/6", "empty controls": "0/18"}
{"CDR-H1": "GFNLDEYGIS", "CDR-H2": "VIYADGQRVSYDDPVK", "CDR-H3": "GEQAGTVMV", "group": "En_Gibbs", "mean, log10 nM": "no signal", "seen in": "0/6", "empty controls": "0/18"}
{"CDR-H1": "GFDLNEYGIS", "CDR-H2": "VIYADGRRTFYADSVK", "CDR-H3": "GNAAGTFNQ", "group": "En_HC", "mean, log10 nM": "-0.33", "seen in": "6/6", "empty controls": "0/18"}
{"CDR-H1": "GFDLNSYGIS", "CDR-H2": "VIYSDGRRTFYQDSVK", "CDR-H3": "GRAAVTFDS", "group": "GP_HC", "mean, log10 nM": "no signal", "seen in": "0/6", "empty controls": "0/18"}
{"CDR-H1": "GFDLNEYGIS", "CDR-H2": "VIYADGMRTAYIDSVK", "CDR-H3": "GNQAGTFDV", "group": "En_Gen", "mean, log10 nM": "-0.17", "seen in": "6/6", "empty controls": "0/18"}
{"CDR-H1": "GFKLNSYGIS", "CDR-H2": "VIYSDGRRTFYMDSVK", "CDR-H3": "GQLAGTFDS", "group": "GP_HC", "mean, log10 nM": "1.44", "seen in": "6/6", "empty controls": "0/18"}
{"CDR-H1": "GFDIQDYGIS", "CDR-H2": "VIYADGSRTAYTNSVK", "CDR-H3": "GVQGAFYDL", "group": "En_Gibbs", "mean, log10 nM": "2.48", "seen in": "1/6", "empty controls": "1/18"}
{"CDR-H1": "GFDLEDYGIS", "CDR-H2": "VIYADGVRTAYADSVK", "CDR-H3": "GEVAGTFDV", "group": "En_Gen", "mean, log10 nM": "0.32", "seen in": "6/6", "empty controls": "0/18"}
{"CDR-H1": "GFDLNEYGIS", "CDR-H2": "VIYADGKRTVYADSVK", "CDR-H3": "GNEAGTFDV", "group": "En_Gen", "mean, log10 nM": "-0.54", "seen in": "6/6", "empty controls": "2/18"}
{"CDR-H1": "GFTVNSYGIS", "CDR-H2": "VIYSDGRRTFYGDSVK", "CDR-H3": "VRAGGSFSC", "group": "Ctrl", "mean, log10 nM": "no signal", "seen in": "0/6", "empty controls": "0/18"}
{"CDR-H1": "GFDLNEYGIS", "CDR-H2": "VIYADGRRTFYADSVK", "CDR-H3": "GNTAGTFLQ", "group": "En_HC", "mean, log10 nM": "-0.59", "seen in": "6/6", "empty controls": "0/18"}
{"CDR-H1": "GFDLNEYGIS", "CDR-H2": "VIYADGQRTAYADSVK", "CDR-H3": "GTNAGTFDT", "group": "En_Gen", "mean, log10 nM": "-0.27", "seen in": "6/6", "empty controls": "0/18"}
{"CDR-H1": "GFTLDDYGIS", "CDR-H2": "VIYSDGQRTFYGDSVK", "CDR-H3": "IKAAGWFDS", "group": "Ctrl", "mean, log10 nM": "no signal", "seen in": "0/6", "empty controls": "0/18"}
{"CDR-H1": "GFTLNEYGIS", "CDR-H2": "VIYSDGRRTFYSDAVK", "CDR-H3": "GRSAGTFDS", "group": "GP_HC", "mean, log10 nM": "1.56", "seen in": "5/6", "empty controls": "0/18"}
{"CDR-H1": "GFTLNEYGIS", "CDR-H2": "VIYSDGRRTFYGDSVK", "CDR-H3": "GRAAGTFDK", "group": "Ctrl+GPLM_Gen", "mean, log10 nM": "0.74", "seen in": "6/12", "empty controls": "1/36"}
{"CDR-H1": "GFDLNEYGIS", "CDR-H2": "VIYADGMRTFYTDNVK", "CDR-H3": "GQNAGTFDV", "group": "En_HC", "mean, log10 nM": "-0.59", "seen in": "6/6", "empty controls": "0/18"}
{"CDR-H1": "GFSLNSYGIS", "CDR-H2": "VIYSDGRRTFYIDSVK", "CDR-H3": "GRYAGTFDS", "group": "GPLM_Gen", "mean, log10 nM": "1.94", "seen in": "4/6", "empty controls": "0/18"}
{"CDR-H1": "GFTLNSYGIS", "CDR-H2": "VSSSDGRRTFYDDSVK", "CDR-H3": "GQLAGTFDS", "group": "Rand", "mean, log10 nM": "-0.05", "seen in": "6/6", "empty controls": "0/18"}
{"CDR-H1": "GFSLNSYGIS", "CDR-H2": "VIYSDGRRTFYGDSVK", "CDR-H3": "GVAAGTFDS", "group": "GPLM_Gen", "mean, log10 nM": "no signal", "seen in": "0/6", "empty controls": "0/18"}
{"CDR-H1": "GFSLNEYGIS", "CDR-H2": "VIYSDGRRTFYGDSVK", "CDR-H3": "GVAAGTFDS", "group": "GPLM_Gen", "mean, log10 nM": "0.29", "seen in": "6/6", "empty controls": "0/18"}
{"CDR-H1": "GFGLQDYGIS", "CDR-H2": "VIYADGQRKMYQDNVK", "CDR-H3": "GNVGSLFSV", "group": "En_Gibbs", "mean, log10 nM": "no signal", "seen in": "0/6", "empty controls": "0/18"}
{"CDR-H1": "GFDLDEYGIS", "CDR-H2": "VIYADGIRQYAQDNVK", "CDR-H3": "GLLGGMTIT", "group": "En_Gibbs", "mean, log10 nM": "no signal", "seen in": "0/6", "empty controls": "0/18"}
{"CDR-H1": "GFTLNSYGIS", "CDR-H2": "VIYSDGRRTFYGDSVR", "CDR-H3": "GRAAGTFSS", "group": "Ctrl", "mean, log10 nM": "1.79", "seen in": "1/6", "empty controls": "0/18"}
{"CDR-H1": "GFTLNSLSIS", "CDR-H2": "VIYSDGRRTFYGDSVK", "CDR-H3": "GHTAGTFDS", "group": "Ctrl", "mean, log10 nM": "-0.25", "seen in": "6/6", "empty controls": "0/18"}
{"CDR-H1": "GFDLNEYGIS", "CDR-H2": "VIYADGVRTAYADSVK", "CDR-H3": "GNVAGTFDS", "group": "En_Gen", "mean, log10 nM": "-1.15", "seen in": "6/6", "empty controls": "0/18"}
{"CDR-H1": "GFELNSYGIS", "CDR-H2": "VIYSDGRRTFYGDSVK", "CDR-H3": "GHAAGTFDL", "group": "GP_Gen", "mean, log10 nM": "1.25", "seen in": "6/6", "empty controls": "0/18"}

The 4 strongest on average among those seen in every replicate, once more:

CDR-H1	CDR-H2	CDR-H3	group	mean, log10 nM	seen in	empty controls
GFDLNEYGIS	VIYADGVRTAYADSVK	GNVAGTFDS	En_Gen	-1.15	6/6	0/18
GFDLNEYGIS	VIYADGRRTFYADSVK	GNTAGTFLQ	En_HC	-0.59	6/6	0/18
GFDLNEYGIS	VIYADGMRTFYTDNVK	GQNAGTFDV	En_HC	-0.59	6/6	0/18
GFDLNEYGIS	VIYADGKRTVYADSVK	GNEAGTFDV	En_Gen	-0.54	6/6	2/18

Empty control strains, which show no peptide, gave a signal in 1% of pairings with all heavy chain designs; the median was 2.08 and 95% of these signals were weaker than 0.84. No background was subtracted. For each scFv, signals with the empty controls are counted beside the result.
Values of this round are not directly comparable with the first-round values of the same sequences.
Where one sequence has several entries in the source, the replicates are pooled.
The parent sequence was in this pool as ten entries: three were never detected, three once, and four in most replicates, with averages from 0.34 to 2.37.
The authors' rule: three or more of the six replicates give a measured affinity, fewer mean a poor binder.